Data as given in US20250255832A1, “SKIN ADHESIVE PATCH FOR NEGATIVE PRESSURE STIMULATION AND MANUFACTURING METHOD THEREFOR” (Research & Business Foundation Sungkyunkwan University, priority 2022, published 2025).
Like-named read-outs stand apart in the source and are kept apart here.

Legend:
[1] = human skin, vs without a patch
[2] = pig skin

delivery depth improved compared to w/o patch ([1]; 30 minutes after removal of the patch): up to 31% | delivery depth improved compared to w/o patch ([1]; after 30 minutes of patch application): up to 56% | delivery depth of the fluorescent particles (rhodamine B) ([2]; 30 minutes after removal of the d-SCC following 30 minutes of application): over 150 μm | delivery depth improved compared to w/o patch ([2]; 30 minutes after removal of the d-SCC following 30 minutes of application, vs without a patch): up to 36% | delivery depth of the fluorescent particles (rhodamine B) ([2]; d-SCC applied for 30 minutes): approximately 130 μm | delivery depth improved compared to w/o patch ([2]; d-SCC applied for 30 minutes, vs fluorescent particles applied without a patch): up to 44%
SMILES: CCN(CC)c1ccc2c(-c3ccccc3C(=O)O)c3ccc(=[N+](CC)CC)cc-3oc2c1.[Cl-] [rhodamine B]
